The target of this assay is T1, rat GLP-1 receptor (Rattus norvegicus, UniProt P32301).
T1 construct: expressed in transfected cells; host or cells: CHO cells
T1 sequence (P32301 22-463): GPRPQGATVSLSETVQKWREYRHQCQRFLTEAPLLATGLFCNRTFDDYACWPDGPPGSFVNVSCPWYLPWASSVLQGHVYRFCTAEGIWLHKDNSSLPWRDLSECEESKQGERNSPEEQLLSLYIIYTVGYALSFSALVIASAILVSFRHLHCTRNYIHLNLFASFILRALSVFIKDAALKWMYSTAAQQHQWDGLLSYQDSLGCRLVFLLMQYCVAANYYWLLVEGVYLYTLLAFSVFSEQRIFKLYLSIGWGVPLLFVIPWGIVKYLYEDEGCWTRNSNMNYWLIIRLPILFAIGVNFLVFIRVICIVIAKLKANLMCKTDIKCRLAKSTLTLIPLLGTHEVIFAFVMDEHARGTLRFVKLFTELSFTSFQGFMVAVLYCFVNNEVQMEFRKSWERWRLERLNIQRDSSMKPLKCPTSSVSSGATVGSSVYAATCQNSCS
As to the kind of experiment: cAMP assay of fermented GLP-1/linker/mTf constructs. It is filed as cell-based. To be noted: for activity compared with a construct without a linker: cAMP assay, vs pREX0505. (In general: Cyclic AMP is a second messenger, typically raised through Gs and lowered through Gi signalling.)

[1] abbreviates: cAMP assay of fermentation product, Tables 1, 3, 6, read-out: Activity.

Where two headings read alike, the source gives them in different places.

For pREX0507: nL GLP-1 (7-37; K34N) SS mTf, the “activity compared with a construct without a linker” value is given as “about the same as that for a construct without a linker”. In addition, the EC50 under setting [1] is 157 nM. Take “pREX0520: nL GLP-1(7-37; K34N) PEAPTD mTf”: the EC50 under setting [1] was found to be 85 nM.

Take pREX0509: nL GLP-1 (7-37; K34N) SSG mTf: the “activity compared with a construct without a linker” value is “about the same as that for a construct without a linker”. Besides, the EC50 under setting [1] is 73.8 nM. As for pREX0518: nL GLP-1(7-37; K34N) PEA mTf, where the note is “running text of Example 2, read-out: EC50 / potency in cAMP assay”, the EC50 turned out to be 375 nM.
